Our source for the Kd values is patent publication US20130280282A1, “DR5 LIGAND DRUG CONJUGATES” (Daiichi Sankyo Co., Ltd., priority 2012, published 2013).

The target in the experiment is T1, recombinant soluble DR5 protein (rsDR5) (human, UniProt O14763 56-183).
T1 construct: Expressed in E. coli from pET21b(+)-sDR5 and purified on Ni-NTA; also called DR5 extracellular domain protein
Description: SPR, BIAcore 3000; conjugate captured by anti-human IgG (Fc) on CM5 chip, rsDR5 0.3-85 nM as analyte.

B1: hB273-mc-MMAF (antibody drug conjugate of hB273 conjugated with mc-MMAF) (antibody, V domains shown)
VH: EVQLVQSGAEVKKPGASVKVSCKASGYSFIGYFMNWMKQSPGMSLEWIGRFNPYNEDTFYNQKFKGKATLTVDKSTSTAYMELSSLRSEDTAVYFCARSAYYFDSGGYFDYWGQGTLVTVSS
VL: DIVMTQSPLSLPVTPGEPASISCRSSQSLVHSNKNTYLHWYLQKPGQSPQLLIYKVSNRFSGVPDRFSGSGSGTDFTLKISRVEAEDVGVYYCSQSTHVPWTFGPGTKVEIKR
modifications: mc-MMAF drug-linker on cysteine thiols freed by partial TCEP reduction; average about 3.5 to 4.5 drug-linker units per antibody; positions not given
notes: Antibody drug conjugate of hB273; also called h13273-mc-MMAF
For B1, the Kd was 2.5 nM.
